Test results from publication PMC5962738.

Chains of the proteins cited; added tags and fusions are not shown. Residues count along the entry.
UniProt P02751, 32-2477: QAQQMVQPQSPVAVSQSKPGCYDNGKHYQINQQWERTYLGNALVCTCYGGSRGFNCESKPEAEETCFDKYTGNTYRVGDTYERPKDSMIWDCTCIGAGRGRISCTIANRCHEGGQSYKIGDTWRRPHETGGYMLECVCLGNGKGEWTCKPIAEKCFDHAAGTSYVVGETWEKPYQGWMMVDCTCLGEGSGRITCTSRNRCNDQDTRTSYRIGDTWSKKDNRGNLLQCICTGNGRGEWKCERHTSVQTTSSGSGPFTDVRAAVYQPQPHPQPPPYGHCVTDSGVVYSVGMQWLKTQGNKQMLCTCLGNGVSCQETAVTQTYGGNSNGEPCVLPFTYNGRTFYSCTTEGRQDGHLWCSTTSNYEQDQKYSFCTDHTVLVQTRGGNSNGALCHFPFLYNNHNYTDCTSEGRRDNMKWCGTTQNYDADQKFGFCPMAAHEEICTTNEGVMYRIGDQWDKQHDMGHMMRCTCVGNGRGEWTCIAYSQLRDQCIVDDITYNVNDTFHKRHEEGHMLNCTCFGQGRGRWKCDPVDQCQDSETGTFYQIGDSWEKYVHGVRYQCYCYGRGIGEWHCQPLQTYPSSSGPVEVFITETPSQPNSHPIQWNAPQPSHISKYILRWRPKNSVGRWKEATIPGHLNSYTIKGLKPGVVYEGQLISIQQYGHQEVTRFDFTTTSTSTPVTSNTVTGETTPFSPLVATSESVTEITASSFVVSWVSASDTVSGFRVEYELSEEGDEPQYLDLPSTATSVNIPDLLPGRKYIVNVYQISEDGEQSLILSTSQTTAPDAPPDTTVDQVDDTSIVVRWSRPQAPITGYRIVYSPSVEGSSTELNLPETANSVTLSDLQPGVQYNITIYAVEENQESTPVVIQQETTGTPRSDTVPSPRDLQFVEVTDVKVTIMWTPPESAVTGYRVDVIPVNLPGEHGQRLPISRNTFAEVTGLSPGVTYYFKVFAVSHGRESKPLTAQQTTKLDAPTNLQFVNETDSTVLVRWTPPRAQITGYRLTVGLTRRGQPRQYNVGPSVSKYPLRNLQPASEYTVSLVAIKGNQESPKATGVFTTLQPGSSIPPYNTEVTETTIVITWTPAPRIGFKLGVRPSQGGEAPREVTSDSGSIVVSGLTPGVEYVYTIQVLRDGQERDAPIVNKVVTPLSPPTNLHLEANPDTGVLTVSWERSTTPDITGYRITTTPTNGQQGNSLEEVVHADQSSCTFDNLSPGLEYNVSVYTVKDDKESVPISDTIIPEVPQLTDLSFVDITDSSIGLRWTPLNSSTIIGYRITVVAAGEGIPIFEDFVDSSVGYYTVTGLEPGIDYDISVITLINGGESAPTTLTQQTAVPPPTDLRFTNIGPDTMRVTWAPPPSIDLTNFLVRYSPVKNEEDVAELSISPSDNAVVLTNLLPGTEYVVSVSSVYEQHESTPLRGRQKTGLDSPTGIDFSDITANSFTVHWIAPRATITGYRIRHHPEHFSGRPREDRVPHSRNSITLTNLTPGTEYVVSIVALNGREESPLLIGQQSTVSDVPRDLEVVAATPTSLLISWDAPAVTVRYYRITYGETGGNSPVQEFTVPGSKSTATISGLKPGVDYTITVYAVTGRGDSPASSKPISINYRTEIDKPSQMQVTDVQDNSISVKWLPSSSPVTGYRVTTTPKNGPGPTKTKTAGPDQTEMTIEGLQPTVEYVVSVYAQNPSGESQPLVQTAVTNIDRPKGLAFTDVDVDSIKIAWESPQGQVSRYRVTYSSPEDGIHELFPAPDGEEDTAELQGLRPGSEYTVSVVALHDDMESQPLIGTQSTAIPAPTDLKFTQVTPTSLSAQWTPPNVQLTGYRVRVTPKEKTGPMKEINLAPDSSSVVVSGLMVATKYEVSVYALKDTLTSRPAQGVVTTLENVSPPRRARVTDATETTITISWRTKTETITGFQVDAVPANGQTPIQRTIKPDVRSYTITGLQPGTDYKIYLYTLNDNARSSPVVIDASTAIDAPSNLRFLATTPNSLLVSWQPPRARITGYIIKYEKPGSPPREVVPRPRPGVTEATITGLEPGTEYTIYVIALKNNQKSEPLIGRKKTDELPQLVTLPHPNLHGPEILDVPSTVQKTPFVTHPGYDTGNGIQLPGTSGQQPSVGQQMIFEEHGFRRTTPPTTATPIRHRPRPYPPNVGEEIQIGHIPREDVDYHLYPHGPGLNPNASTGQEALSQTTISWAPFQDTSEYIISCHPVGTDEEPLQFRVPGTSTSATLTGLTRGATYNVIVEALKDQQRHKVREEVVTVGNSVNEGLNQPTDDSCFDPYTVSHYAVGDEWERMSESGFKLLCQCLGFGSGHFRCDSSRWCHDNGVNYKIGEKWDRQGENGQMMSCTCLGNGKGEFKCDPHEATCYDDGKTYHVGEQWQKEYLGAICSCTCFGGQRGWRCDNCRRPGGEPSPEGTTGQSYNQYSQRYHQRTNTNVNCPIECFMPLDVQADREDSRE

Target: Fibronectin (UniProt P02751)
Assay: SPR; Biacore X100 Plus; fibronectin amine-coupled to a CM5 chip (2868 RU); rEF-Tu as analyte 0-200 ug/mL in HBS-EP+ (10 mM HEPES, 150 mM NaCl, 3 mM EDTA, 0.05% P20), 30 uL/min for 180 s, dissociation 1,000 s, 20°C

“Recombinant elongation factor thermo unstable (EF-Tu) of Mycoplasma hyopneumoniae (from UniProt Q4A9G1 1-402) (natural protein; other documents disagree on this pair)” was tested. Which Kd did it give?
The Kd was 605 nM.

And the kon?
The kon was 3470 M⁻¹ s⁻¹.
